# Assay outcomes deposited in PubChem by National Center for Advancing Translational Sciences (NCATS).
# Sampled rows, rich in hits. Any-hit rate of the full collection: about 16%.
# DT40 TDP1 CPT = DT40-hTDP1 cell growth loss with CPT | 420,000 tested, 12% active | chicken DT40 Tdp1-/-;hTDP1 cells + 20 nM CPT, ATP luminescence, 48 h | AID 686979 | Potency, µM (series often up to 46.2 µM), inactives show top-dose activity change, negative = growth inhibition, actives largely listed as inhibitors; note: potency is the fitted concentration of half-maximal effect; % is set by controls: 0 for no effect and ±100 for the full control effect; nearly all actives have a fitted effect of over 55% in size
#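 Chicken DT40 Tdp1-/- cells stably complemented with human TDP1 were seeded at 400 cells/well in medium containing 20 nM camptothecin, exposed to pin-transferred compounds, and grown at 37 °C for at least 48 hr. Viability was read as ATP luminescence.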
# uPA surface inh = inhibitors of cell surface uPA generation; Potency, µM (top dose mostly 38.3 µM), for inactives: at the top dose activity change, negative = inhibition, most hits filed as inhibitors; cell surface uPA generation assay, qHTS; 330,000 tested, 0.31% active; active = well fitted inhibition curve with a large enough effect; inconclusive = small, poorly fitted or top-dose-only effect; inactive = no such curve, though single readings can be large or run the other way; tested in mouse RAW 264.7 cells; note: potency is the fitted concentration of half-maximal effect; % is set by controls: 0 for no effect and ±100 for the full control effect; nearly all actives have a fitted effect of over 55% in size
# miR-21 reporter = raises the signal of a miR-21 reporter; 340,000 tested, under 10 active; HeLa miR-21 FLuc reporter, luciferase, 48 h; Potency, µM (series often up to 38.3 µM), for inactives: at the highest dose reporter change, positive = more light; active = well fitted rising curve with a large enough effect; inconclusive = small, poorly fitted or top-dose-only effect; inactive = no such curve, though single readings can be large or run the other way;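 further: % of control where 0% means no effect; miR-21 action dims this reporter so a rising signal means less miR-21 action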
#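 Using DMEM plus 10% FBS, HeLa miR-21-FLuc cells are incubated with test compounds (final up to about 40uM) for 48 hours; firefly luciferase signal is then imaged following reagent-mediated lysis.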
# TDP1 cell noCPT = qHTS for Inhibitors of human tyrosyl-DNA phosphodiesterase 1 (TDP1): qHTS in cells in absence of CPT | DT40 Tdp1-/- hTDP1 cells, no CPT, ATP luminescence, 48 h | Potency, µM (top dose mostly 46.2 µM), for the others: at the highest dose activity change, negative = growth inhibition, usual class: inhibitors | 420,000 tested, 15% active; note: potency is the fitted concentration of half-maximal effect; % is set by controls: 0 for no effect and ±100 for the full control effect; nearly all actives have a fitted effect of over 55% in size
#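 Growth of hTDP1-complemented DT40 Tdp1-knockout cells is measured by ATP luminescence after at least 48 hr compound exposure at 37 °C, with DMSO substituting for the 20 nM CPT used in the parallel screen.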
# TDP1 inh = blocks human tyrosyl-DNA phosphodiesterase 1 | Q9NUW8 | recombinant TDP1, AlphaScreen DNA substrate cleavage | Potency, µM (titrated, usually from 130 µM), for the others: top-dose activity change, negative = inhibition, actives largely listed as inhibitors | 350,000 tested, 0.28% active | AID 485290; note: potency is the fitted concentration of half-maximal effect; % is set by controls: 0 for no effect and ±100 for the full control effect; nearly all actives have a fitted effect of over 40% in size
#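 Signal: AlphaScreen proximity between streptavidin donor and anti-FITC acceptor beads on intact substrate. Reaction: Tdp1 1 nM, substrate 15 nM final, 5 min RT after 15 min compound preincubation.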
# Active calls of the source: *; u = inconclusive; x = no result; [ ] = another dose, or the depositor's remark. Unless noted, calls come from the whole dose curve; as a rule, active = well fitted curve in the direction sought with a large enough effect; inconclusive = small, poorly fitted or top-dose-only effect, or another doubt; inactive = no such curve, though single readings can be large; an effect the other way counts as inactive or inconclusive.
# Field names: A = DT40 TDP1 CPT; B = uPA surface inh; C = miR-21 reporter; D = TDP1 cell noCPT; E = TDP1 inh
COCCNC(=O)c1cc(-c2ccc(-c3ccccc3)cc2)nc2ccccc12
  A = 11.6µM*	B = -16.4%	C = 0.2%	D = 5.17µM*	E = 2.6%
O=C(NCc1ccccn1)c1cc(-c2ccccc2)nc2ccccc12
  A = 4.6%	B = 2.0%	C = -5.5%	D = -2.9%	E = 8.2%
Cc1ccc(-c2cc(C(=O)NCc3ccccc3Cl)c3ccccc3n2)cc1C
  A = 14.6µM*	B = x	C = -9.0%	D = u	E = 5.2%
Cc1cc(C(=O)NCc2cc(C)n(C)n2)sc1-c1ccccc1
  A = 13µM*	B = -3.0%	C = -3.6%	D = 20.6µM*	E = 9.1%
Cc1ccc(-c2cc(C(=O)NC(C)c3ccccc3)c3ccccc3n2)cc1C (stereo not drawn)
  A = u	B = x	C = -4.8%	D = u	E = 5.2%
Cc1cccc(-c2cc(C(=O)NCc3ccccn3)c3ccccc3n2)c1
  A = 16.4µM*	B = 2.3%	C = -1.5%	D = 13µM*	E = 4.1%
O=C(NCCc1ccccn1)c1cc(-c2ccccc2Cl)nc2ccccc12
  A = -29.7%	B = -1.8%	C = 0.5%	D = 18.4µM*	E = -0.6%
O=C(NCCc1ccccn1)c1c(-c2ccccc2)sc2ccccc12
  A = u	B = -3.2%	C = x	D = 16.4µM*	E = 0.1%
O=C(NCCc1ccccn1)c1c(-c2ccsc2)sc2ccccc12
  A = u	B = -19.1%	C = x	D = u	E = -0.1%
CCn1cc(-c2cc(C(=O)O)c3ccccc3n2)cn1
  A = 9.2µM*	B = -14.3%	C = 26.8%	D = u	E = 0.0%
O=C(NCc1ccccn1)c1cc(-c2ccc(-c3ccccc3)cc2)nc2ccccc12
  A = 16.4µM*	B = 1.12µM*	C = 18.3%	D = 8.2µM*	E = -2.7%
CC1CCC2C(=O)N3C(CCC(C)[C@@H]3c3cccc(N4CCOCC4)c3)C(=O)N2C1c1cccc(N2CCOCC2)c1 (stereo partly drawn)
  A = x	B = x	C = x	D = x	E = 10.1%[21 µM]
CCn1cc(CNC(=O)c2cc(-c3ccc(C)c(C)c3)nc3ccccc23)c(C)n1
  A = 14.6µM*	B = x	C = 15.6%	D = 16.4µM*	E = 1.1%
Cc1ccc(-c2cc(C(=O)NCCCN3CCCC3)c3ccccc3n2)cc1C
  A = u	B = -1.4%	C = -17.6%	D = 29.1µM*	E = 2.8%
Cc1ccc(-c2cc(C(=O)NCc3ccccn3)c3ccccc3n2)cc1C
  A = u	B = -5.7%	C = 15.9%	D = 7.31µM*	E = 8.3%
Cc1cc(CNC(=O)c2cc(-c3ccccc3)nc3ccccc23)nn1C
  A = u	B = -1.1%	C = 7.8%	D = 20.6µM*	E = 5.5%
O=C(NCc1ccccc1)c1cc(-c2ccncc2)nc2ccccc12
  A = u	B = -2.7%	C = 0.8%	D = u	E = x
CCCCCn1c(C)c2c(OCC)cccc(=O)c2c1C
  A = 23.1µM*	B = 11.8%	C = -6.5%	D = u	E = 9.0%
C=C1C(=O)O[C@H]2[C@H]1[C@H](OC(=O)/C(C)=C\C)C[C@]1(CO1)[C@@H]1[C@H](OC(C)=O)C=C(C)[C@]21O
  A = 11.6µM*	B = -8.9%	C = x	D = 13µM*	E = x
CC(C)NC(=O)COc1ncnc2sccc12
  A = -4.0%	B = 3.9%	C = -2.1%	D = -16.8%	E = 0.0%
COc1ccccc1N1CCN(CCOc2c(OC)cccc2OC)CC1
  A = 18.4µM*	B = -5.0%	C = 5.2%	D = u	E = 5.2%
COc1ccccc1N1CCN(/N=C/C(Cl)=C/c2ccccc2)CC1
  A = 25.9µM*	B = 7.1%	C = -48.4%	D = 16.4µM*	E = 8.7%
COc1ccccc1N1CCN(C(=O)CCCN2C(=O)c3cccc4cccc(c34)C2=O)CC1
  A = 16.4µM*	B = -4.9%	C = 4.3%	D = 29.1µM*	E = 1.9%
COc1ccccc1N1CCN(C(=O)CN2C(=O)c3cccc4cccc(c34)C2=O)CC1
  A = 25.9µM*	B = -1.8%	C = -0.2%	D = u	E = 1.2%
COc1ccccc1N1CCN(/N=C\c2ccccc2)CC1
  A = -3.3%	B = -2.1%	C = -62.5%	D = -1.1%	E = x
CCCS(=O)(=O)NCc1c(C)ncc2c1CCN(C(=O)c1cccc(-c3ccccc3F)c1)C2
  A = 6.7%[9.04 µM]	B = x	C = x	D = u	E = x
CCOc1cccc(N2C(=O)CC(NCc3ccc(S(N)(=O)=O)cc3)C2=O)c1 (stereo not drawn)
  A = -3.4%	B = 2.3%	C = 3.5%	D = 7.3%	E = 1.0%
O=C(Nc1ccc(F)cc1)c1cc2cc3ccc(Cl)cc3nc2o1
  A = 0.0%	B = x	C = -3.6%	D = -20.2%	E = 4.7%
COc1ccccc1N1Cc2ccccc2C1
  A = 25.9µM*	B = 2.3%	C = -2.2%	D = 16.4µM*	E = 11.2%

# Random excerpt: 3 entries already listed, in no set order.
# Field names: A = DT40 TDP1 CPT; B = uPA surface inh; C = miR-21 reporter; D = TDP1 cell noCPT; E = TDP1 inh
Cc1cc(C(=O)NCc2cc(C)n(C)n2)sc1-c1ccccc1
  A = 13µM*	B = -3.0%	C = -3.6%	D = 20.6µM*	E = 9.1%
COc1ccccc1N1CCN(CCOc2c(OC)cccc2OC)CC1
  A = 18.4µM*	B = -5.0%	C = 5.2%	D = u	E = 5.2%
Cc1ccc(-c2cc(C(=O)NCc3ccccc3Cl)c3ccccc3n2)cc1C
  A = 14.6µM*	B = x	C = -9.0%	D = u	E = 5.2%
